The numbers were not newly measured in patent US8501472B2, “Compositions and methods for treating and diagnosing pancreatic cancer” (The Regents of the University of Michigan, priority 2007, dated 2013), which cites them from elsewhere.

Data set [1] concerns pancreatic cancer. As to conditions: reference 28.
In data set [2] the test system is pancreatic cancer. The note with it: reference 28. The source holds these as a separate data set.

Consider `CC1=C2C[C@H]3[C@@H](CC=C4C[C@@H](O)CC[C@@]43C)[C@@H]2CC[C@]12O[C@@H]1C[C@H](C)CN[C@H]1[C@H]2C` [cyclopamine], for which the “pancreatic cancer growth in vitro” value with pancreatic cancer [1] is “inhibited pancreatic cancer growth”. Besides, the “pancreatic cancer growth in vivo” value in the data set with pancreatic cancer [2] is “inhibited pancreatic cancer growth”.
